Binding of CDR-mutated scFvs to a peptide of the spike HR2 region

From the AlphaSeq antibody data of Li et al. 2023 (doi:10.1038/s41467-023-39022-2), copy in the FLAb collection.

Target peptide (SARS-CoV-2 spike, HR2 region): PDVDLGDISGINAS

Parent scFv Ab-14: VH joined to VL by a (GGGGS)3 linker. Changes lie in the light chain CDRs alone.
VH: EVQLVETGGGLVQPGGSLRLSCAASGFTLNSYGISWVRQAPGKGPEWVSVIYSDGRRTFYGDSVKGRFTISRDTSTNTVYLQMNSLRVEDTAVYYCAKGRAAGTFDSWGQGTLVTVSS
VL: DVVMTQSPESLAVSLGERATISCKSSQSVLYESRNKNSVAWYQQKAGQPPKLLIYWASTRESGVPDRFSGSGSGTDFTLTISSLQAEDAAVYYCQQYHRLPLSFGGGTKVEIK

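The starting antibody came from a phage panning campaign against this peptide. This is the validation round: designs drawn from the data on random variants, tested in the same kind of assay. Their group label is 14L_En_Gibbs (En: ensemble of fine-tuned language models; Gibbs: Gibbs sampling). The assay is AlphaSeq: two haploid yeast populations carry antibody and antigen on their surface. Binding brings cells together so that they mate, and sequencing counts the barcode pairs among the diploids. The ratio of observed to expected reads was calibrated, replicate by replicate, on BCL2-family standards whose Kd was known from biolayer interferometry. Each pool was mated in six replicate cultures.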

Variants are written as CDR1, CDR2 and CDR3 of the light chain (limits as in the source). Parent: KSSQSVLYESRNKNSVA, WASTRES, QQYHRLPLS. Affinities are written as log10 Kd with Kd in nM; a lower number is a better binder. A pair that was not seen in that replicate is written "nd"; this usually means weak binding, but a binder can also be missed.

CDR-L1	CDR-L2	CDR-L3	replicates, log10 nM	signal with controls
MIEIIPNGYMKMRSNVA	DGSLVRM	QQYARLPLM	nd nd nd nd nd nd	0/18
SMRAVGCDMQRNHSNIA	DATQIED	QQYVMLPLS	0.48 1.08 0.38 0.60 1.37 1.25	1/18 (2.22)
KLESRQYQFGANHQNIA	DATDSMN	QQYMHLPFT	-0.20 -0.17 -0.36 -0.44 -0.49 -0.14	0/18
HITAALAGLTGQMNSIA	ASSARCA	QQYYQLPLT	0.74 0.67 1.30 0.98 0.93 0.79	1/18 (1.92)
NISIEDVSEHNFANNVA	STDCRCS	QQYFHLPLD	1.90 2.36 0.73 2.97 2.28 1.39	3/18 (2.69)
MLDEYQMYEAANLNAIA	DANCTMP	QQYYSLPLS	0.99 1.23 0.76 1.03 0.89 1.08	2/18 (2.47)
KMNMAVSQDLMDEQSVA	DHMTAVT	QQYGRLPLS	nd nd nd nd nd nd	0/18
KLGASMYVGTEAKRAIA	QDEMRVH	QQYDRLPLM	nd 2.34 nd nd 1.84 2.05	0/18
QLMEEQSMRTEATWNIA	QGEQKVH	QQYFRLPLA	0.64 1.96 1.84 0.72 0.66 1.01	1/18 (2.73)
QMYPFEVAKGEGTNNVA	HVSVRAL	QQYERLPLV	1.01 1.50 1.36 0.66 1.36 1.35	0/18
QVFFDLFEQGKRSQPIA	GGSMRET	QQYARLPLV	0.78 0.81 0.78 0.54 0.70 0.89	2/18 (2.78)
KMNMAVQQDLMDEYSVA	DHMTAVT	QQYGRLPLS	nd 2.84 2.21 nd 2.49 3.33	1/18 (3.09)
KISINQMHYNKMRSNIA	NTSQKAM	QQYFHLPLM	2.01 1.36 1.82 1.57 1.40 1.24	3/18 (2.88)
DLTVSDNYGSQLENNIA	QGVEKCE	QQYSRLPLA	0.56 0.44 0.48 0.01 0.28 0.23	1/18 (2.07)
ALRQKGFYLHGDRQNIA	HSDTRAA	QQYSMLPLA	0.35 0.39 -0.05 -0.17 -0.22 0.12	0/18
NMRGGEGEIAQHGYNVA	GVDLRAA	QQYARLPLH	0.74 0.56 0.98 1.06 0.73 1.17	0/18
LLKGMVEGQLYKQNAIA	NAEERDR	QQYNHLPLS	0.59 0.65 0.48 0.44 0.53 0.83	1/18 (4.16)
RVRLNEGEIDMHWYNIA	SVDIRAD	QQYSRLPLF	0.56 0.37 0.25 0.75 0.56 0.58	1/18 (2.92)
QISMFELQGTGWAQNIA	QASHRTE	QQFSRLPLV	1.10 0.94 0.98 0.64 0.80 1.21	0/18
QISMNLEIYDQEQWAVA	HGEMRTE	QQYHKLPLS	-0.22 nd 0.64 0.44 0.51 1.50	1/18 (0.53)
FMEMDFDGNDVNRNSIA	SDEAVTR	QHYARLPLS	nd nd nd nd nd nd	0/18
SLQTKYSIAQDRWSNVA	HADQREA	QQYFRLPIV	1.60 0.90 0.68 0.73 0.86 1.34	1/18 (2.45)
ALSFEMESPHNHSNNVA	SASKLCS	QQYFTLPLS	nd 2.76 nd nd nd nd	0/18
VLMGWGADQIQHANSVA	DADEVDM	QQYAHLPLS	1.64 1.62 2.84 4.19 1.24 2.08	0/18
KVQLGLERGNQAYSAVA	GVTQKGD	QQYFQLPLG	1.68 1.84 1.89 1.85 1.94 1.76	0/18
MISNEQDYGYSATNSVA	DVTEKLN	QQYKRLPLT	nd 2.97 nd nd nd nd	0/18
KMNMAVQQDLMDEQSVA	DHMTAVT	QQYGRLPLS	1.19 -0.11 0.17 0.16 0.14 0.70	0/18
MLEEYQSYGAANLNAVA	DANCTMF	QQYYRLPIS	0.68 0.29 0.34 0.06 0.25 0.50	0/18
KFQIGFNQGSSMEHNIA	EGTYAEE	QQYARLPLQ	1.63 0.76 1.03 2.37 0.93 1.58	0/18
HVESAMVESNAKKKNVA	NGQGRVE	QQYGRLPLQ	1.53 1.39 1.11 2.90 1.71 1.52	1/18 (2.24)
SVGWAHENGDNKMNNIA	DTTHLAY	QQYSRLPIT	0.80 0.81 0.27 0.30 0.55 0.42	1/18 (2.24)
SIRQVGCDNQRNHSNIA	DATQIEK	QQYSMLPLS	0.00 -0.07 0.05 0.19 -0.01 0.10	1/18 (2.80)
QLSMMEQHMGDRMHNVA	DTNQAKM	QDYFRLPLM	nd nd nd nd nd nd	0/18
ALSIQQQENTGIVNSIA	QTSLREH	QQYHHLPLC	0.55 0.77 0.72 0.56 0.36 0.52	0/18
HLELEYMQMMKDHNSIA	DTEHKTD	QQYFRLPIS	0.62 0.26 0.51 0.32 0.00 0.71	1/18 (1.46)
HIDHEWNHGANRDNNIA	EAQTVAA	QDYFRLPII	1.81 1.73 1.66 1.66 1.45 1.91	1/18 (2.92)
KISTQIPEFEMWDNAIA	EATLRET	QHYQRLPLS	1.29 nd 2.56 1.62 0.51 1.56	3/18 (1.64)
RIDAYPPMQGNNIDSIA	ENAITLH	QQYANLPLS	2.21 nd nd nd 3.41 nd	1/18 (2.13)

The 2 strongest on average among those seen in every replicate, once more:

| CDR-L1 | CDR-L2 | CDR-L3 | replicates, log10 nM | signal with controls |
|---|---|---|---|---|
| KLESRQYQFGANHQNIA | DATDSMN | QQYMHLPFT | -0.20 -0.17 -0.36 -0.44 -0.49 -0.14 | 0/18 |
| SIRQVGCDNQRNHSNIA | DATQIEK | QQYSMLPLS | 0.00 -0.07 0.05 0.19 -0.01 0.10 | 1/18 (2.80) |

The range of this assay differs from that of the first round, and the authors advise against merging the two. In the paper, a design with two or fewer of six values counts as a poor binder. Empty control strains, which show no peptide, gave a signal in 4% of pairings with all light chain designs; the median was 2.64 and 95% of these signals were weaker than 1.59. No background was subtracted. Also given: how often the same scFv was detected with the empty control strains, with their mean in brackets.